Test results taken from patent US20040076581A1, “Use of neuropeptide y1 receptor binding compounds in the treatment and diagnosis of cancer” (priority 2000, published 2004).

By UniProt entry, the sequences of proteins in these tests, tags left out.
UniProt P49146, whole entry: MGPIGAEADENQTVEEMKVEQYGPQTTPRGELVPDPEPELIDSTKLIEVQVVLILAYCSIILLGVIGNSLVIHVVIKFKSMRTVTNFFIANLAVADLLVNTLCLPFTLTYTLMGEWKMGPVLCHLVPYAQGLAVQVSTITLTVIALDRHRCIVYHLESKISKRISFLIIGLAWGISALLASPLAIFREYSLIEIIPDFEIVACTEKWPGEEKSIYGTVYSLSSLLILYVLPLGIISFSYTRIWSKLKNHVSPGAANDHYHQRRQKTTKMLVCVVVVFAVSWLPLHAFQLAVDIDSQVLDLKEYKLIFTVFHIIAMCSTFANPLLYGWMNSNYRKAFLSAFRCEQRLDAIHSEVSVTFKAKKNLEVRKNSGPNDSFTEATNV

Target: T1, Y2 receptors in normal breast (Homo sapiens, UniProt P49146)
T1 construct: Twenty-μm thick cryostat sections of the tissue samples were processed for NPY receptor autoradiography; from tissue; host or cells: human normal breast tissue adjacent to carcinoma, cryostat sections
Experiment: NPY receptor autoradiography, displacement of 125I-PYY in adjacent normal breast sections
Format: binding
Conditions: FIG. 1
Experimental: For autoradiography, tissue sections were mounted on precleaned microscope slides and stored at −20° C. for at least 3 days to improve adhesion of the tissue to the slide. […] The slides were incubated at room temperature with the radioligand for 120 min.
In selected cases, displacements with a single concentration (25 nM) of each of the above mentioned peptides were performed.
On completion of the incubation, the slides were washed four times for 5 min each in ice-cold preincubation solution, pH 7.4. They were rinsed twice in ice-cold distilled water, and then dried under a stream of cold air at 4° C., apposed to ^3H-Hyperfilms and exposed for 7 days in x-ray cassettes.
Tissue standards for iodinated compounds (Amersham) were used for this purpose.

Question: Which “displacement of 125I-PYY binding in breast” value (single concentration 25 nM of unlabeled peptide, adjacent normal breast) does the source give for PYY(3-36) here?
Answer: Complete displacement

Question: What about the “affinity in surrounding breast (rank order of potency)” value (surrounding normal breast expressing predominantly Y2) of the same substance?
Answer: high affinity
